This passage reports Ki results from ChEMBL document CHEMBL1138982 (Bioorg Med Chem Lett, 2006).

Chains of the proteins cited; added tags and fusions are not shown.
UniProt P25103, whole entry: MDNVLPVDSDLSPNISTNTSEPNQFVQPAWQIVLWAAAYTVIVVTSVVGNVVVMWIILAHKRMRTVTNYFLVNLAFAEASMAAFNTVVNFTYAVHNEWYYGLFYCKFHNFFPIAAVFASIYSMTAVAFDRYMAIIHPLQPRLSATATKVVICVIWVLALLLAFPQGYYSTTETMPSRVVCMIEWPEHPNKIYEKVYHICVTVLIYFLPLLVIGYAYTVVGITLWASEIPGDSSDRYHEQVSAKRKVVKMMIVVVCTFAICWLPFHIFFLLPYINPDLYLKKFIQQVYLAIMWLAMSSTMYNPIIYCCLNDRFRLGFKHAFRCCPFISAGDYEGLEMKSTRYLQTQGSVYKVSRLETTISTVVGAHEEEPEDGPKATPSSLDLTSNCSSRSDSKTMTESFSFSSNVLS

The assay addresses Substance-P receptor (Homo sapiens, UniProt P25103). The experiment in a line: Displacement of [3H]-labeled substance P from cloned human NK1 receptor expressed in CHO cells. Format: cell-based.

pKi: −log10 of the molar value.

The term pKi denotes the negative decadic logarithm of the Ki, by convention in mol/L. The low end stands for a large Ki, the high end for a small Ki. The compound `CC(C)(C(=O)Nc1ccccc1-c1ccccc1)c1cc(C(F)(F)F)cc(C(F)(F)F)c1` gave a pKi of 5.86.

`Cc1ccccc1-c1cnc(N2CCN(C)CC2)nc1C(=O)N(C)Cc1cc(C(F)(F)F)cc(C(F)(F)F)c1` had a pKi of 8.46.
